Experimental data as given in US7053177B1, “Random peptides that bind to gastro-intestinal tract (GIT) transport receptors and related methods” (Cytogen Corporation, priority 1997, dated 2006).

Test system: rat gastro-intestinal tract (closed loop)
Assay: Transport of preselected phage libraries in rat closed loop, detected by oligonucleotide hybridization/autoradiography
Conditions: hSI pool; in words

Sequence | Transport from the closed loop model into the portal circulation | Presence in the intestine samples or fractions
SGGEVSSWGRVNDLCARVSWTGCGTARSARTDNKGFLPKHSSLR [Phage SNi45] | not transported | 
RVGQCTDSDVRRPWARSCAHQGCGAGTRNSHGCITRPLRQASAH [Phage SNi10] | transported | found in the intestine samples or fractions
SDSDGDHYGLRGGVRCSLRDRGCGLALSTVHAGPPSFYPKLSSP [Phage SNiAX2] | not transported | 
SHSGGHMRAYGDVFRELRDRWNATSHHTRPTPQLPRGPN [Phage SNi28] | not transported | 
SPCGGSWGRFMQGGLFGGRTDGCGAHRNRTSASLEPPSSDY [Phage SNi34] | transported | 
RGAADQRRGWSENLGLPRVGWDAIAHNSYTFTSRRPRPP [Phage SNi38] | transported | 
SPKLSSVGVMTKVTELPTEGPNAISIPISATLGPRNPLR [Phage SNiAX8] | not transported | 
RTTTAKGCLLGSFGVLSGCSFTPTSPPPHLGYPPHSVN [Phage SNiAX6] | not transported | 
